Assay results reported in US20210361742A1 (MICROQUIN, published 2021).

Biological target: endogenous BI-1 (Bax Inhibitor-1) of HeLa cells (human, UniProt P55061 1-237)
Test: co-immunoprecipitation, immunoblot (FIG. 1A legend)

B1: HA-tagged MQ001 (other)
chain: MLSTAADMQGVVTDGMASGLDKDYLKPDDSPSSVNLGCSWNSLTRNLTSPDSRILSSVRDAAASSDNGAQVKVGNRTYRVVVTDNKFCVTRESHSGCFTNLLHRLGWPKGEISRKIEVMLNSSPVNRAMERGAVHSNRPDLPPVDYAPPELPSVDYNSLPVPGNVIGKGGNAVVYEDAEDATKVLKMFTTSQSNEEVTNEVRCFNQYYGAGSAEKIYGDNGDIIGIRMDKINGESLLNISSLPAQAEHAIYDMFDRLEQKGILFIDTTETNVLYDRTRNEFNPIDISSYNISERSWSENQIMQSYHGGKQDLISVVLSKI
  binding result: binds
